A value given as a limit tells only on which side of the number the result lay.

One assay has as its system isolated liver rough endoplasmic reticulum (RER). Conditions: RER treated with 5 mM EDTA.
Regarding EDTA, the “degranulation by specific-activity measurements” value stood at 64.4%.

Staying with this assay, now noted: Table IV.1; RER treated with 5 mM EDTA; untreated RER 2034, SER 381.
Regarding EDTA, the “Specific activity (d/s/mg) Protein of stripped RER” value is 969 d/s/mg.

The assay is the same for the next values; noted with them: Table IV.1; RER treated with 5 mM EDTA; untreated RER 13,390, SER 19,106.
Take EDTA: the “Specific activity (d/s/mg) RNA of stripped RER” value is 13,269 d/s/mg.

Staying with this assay, now noted: Table IV.3; incubate 8.5 ug/ml; 2 h, 25 C; >5% regarded as positive.
Take `Nc1cccc2ccccc12`: the “Degranulation (%)” value stood at 9.9%.

For `COc1cc2c(c(OC)c1OC)-c1ccc(OC)c(=O)cc1[C@@H](NC(C)=O)CC2`, the “Degranulation (%)” value stood at 4.4%.

Still in this assay, the particulars now being: Table IV.3; incubate 12 ug/ml; 2 h, 25 C; >5% regarded as positive.
As for `O=[N+]([O-])c1ccc(O)c([N+](=O)[O-])c1`, the “Degranulation (%)” value is 6-8%. With `CN(C)C(=O)Cl`, the “Degranulation (%)” value is reported as 3 -5%. Consider 3,4,9,10-Dibenzpyrene, for which the “Degranulation (%)” value worked out at 9.5%.

Consider Dimethylformamide, for which the “Degranulation (%)” value is 0-3%.

Regarding `CCOC(N)=O`, the “Degranulation (%)” value is reported as 3 - 8%.

`O=C(O)c1ccccc1`: the “Degranulation (%)” value is 3 -5%. Take `Oc1cccc2ccccc12`: the “Degranulation (%)” value was 1 -3%. Regarding 2,4,5-Trichlorophenoxyacetate, the “Degranulation (%)” value was found to be 0.1%. For the molecule `Oc1cccc(O)c1`, the “Degranulation (%)” value is on record as 0-4%.

Regarding `Cc1cc2nc3c(=O)[nH]c(=O)nc-3n(C[C@H](O)[C@H](O)[C@H](O)CO)c2cc1C`, the “Degranulation (%)” value is above 5.6%.

As to `CC12CCC(CC1=O)C2(C)C` (stereo not drawn), the “Degranulation (%)” value is on record as 3 -4%. On to `c1cc2cccc3c4cccc5cccc(c(c1)c23)c54`, for which the “Degranulation (%)” value was 0-0%.

With `COP(=O)(OC)OC`, the “Degranulation (%)” value was above 5.8%. The same measure, in the same setting: with `Cc1c2ccccc2c(C)c2ccccc12` the figure was 1-3%; with `Nc1ccccc1`, 2 -5%; with `O=NN(c1ccccc1)c1ccccc1`, 1 -8%. In the case of `Nc1ccccc1C(=O)O`, the “Degranulation (%)” value was above 37%. Take `Nc1ccc(-c2ccc(N)cc2)cc1`: the “Degranulation (%)” value is listed as 21.7%. On to “1,1'-Ethylene-2,2'-bipyridinium dibromide”, for which the “Degranulation (%)” value is on record as 1- 7%. Same read-out and setting: with `O=[N+]([O-])c1ccccc1` the figure was 4-5%; with `c1ccc2[nH]ccc2c1`, 0 -8%.

For the molecule `ClC1=C(Cl)[C@]2(Cl)[C@@H]3[C@@H]4C[C@@H]([C@H]5O[C@@H]45)[C@@H]3[C@@]1(Cl)C2(Cl)Cl`, the “Degranulation (%)” value came to 4.3%. On to `O=C1c2ccccc2C(=O)c2ccccc21`, for which the “Degranulation (%)” value is reported as 4.7%. In the case of `S=C1NCCN1`, the “Degranulation (%)” value is on record as 7-8%. On to `Oc1ccc2ccccc2c1`, for which the “Degranulation (%)” value is listed as 1-4%.

With `Cc1c[n+]([O-])c2ccccc2c1[N+](=O)[O-]`, the “Degranulation (%)” value is on record as 1 -6%. Regarding `CN(C)P(=O)(N(C)C)N(C)C`, the “Degranulation (%)” value is listed as 2-8%. As for D.D.T., the “Degranulation (%)” value was 1 -5%.

Turning to `c1ccc2nc3ccccc3cc2c1`, the “Degranulation (%)” value worked out at 3.5%.

On to `c1ccc2ccccc2c1`, for which the “Degranulation (%)” value was 0-8%.

Still in this assay, the particulars now being: Table IV.3; incubate 12 ug/ml; + generating system.
On to `CO[C@@]12[C@H](COC(N)=O)C3=C(C(=O)C(C)=C(N)C3=O)N1C[C@@H]1N[C@@H]12`, for which the “Degranulation (%)” value is recorded as 0-4%.

Staying with this assay, now noted: evaluation screen.
`Nc1ccc2ccccc2c1`: the “result in the degranulation test” value is “positive”.

Still in this assay, the particulars now being: in the absence of NADPH.
With `CO[C@@]12[C@H](COC(N)=O)C3=C(C(=O)C(C)=C(N)C3=O)N1C[C@@H]1N[C@@H]12`, the “result in the degranulation test” value is listed as “positive”.

The same assay, now with this note: in the presence of NADPH.
For `CO[C@@]12[C@H](COC(N)=O)C3=C(C(=O)C(C)=C(N)C3=O)N1C[C@@H]1N[C@@H]12`, the “result in the degranulation test” value is given as “negative”.
